What was measured:
[1] = tested on: human OCT2, or MATE1 transporters; conditions: oxaliplatin 50 µM
[2] = tested on: mouse OCT2, or MATE1 transporters; conditions: oxaliplatin 50 µM

O=C1[O][Pt]2([NH][C@@H]3CCCC[C@H]3[NH]2)[O]C1=O [Oxaliplatin]
increase in oxaliplatin uptake, human transporters vs empty vector [1]: 3 fold | increase in oxaliplatin uptake, murine transporters vs empty vector [2]: 15 fold

Reference: paper PMC8707461, “In Vitro and In Vivo Inhibition of MATE1 by Tyrosine Kinase Inhibitors” (Pharmaceutics, 2021)
